Source: publication PMC9826837

Target: rat cardiac troponin I (cTnI), Ser22/23 bisphosphorylated (rat) (UniProt P23693)
Assay: SEC-MALS

- stoichiometry N: 1
Substance: rat cardiac troponin C (cTnC) (from UniProt Q4PP99 1-161) (natural protein)
